Molecular target: T1, Cyclin Dependent Kinase 4/Cyclin D3 (CDK4-cycD3) (Homo sapiens, UniProt P11802)
T1 construct: purchased Carna Biosciences 04-105
Assay: CDK4-cycD3 TR-FRET (LANCE) enzyme assay
Assay type: biochemical
Method: Cyclin Dependent Kinase 1/Cyclin A2 (CDK1-cycA2), Cyclin Dependent Kinase 2/Cyclin E1 (CDK2-cycE1), Cyclin Dependent Kinase 4/Cyclin D3 (CDK4-cycD3) and Cyclin Dependent Kinase 6/Cyclin D3 (CDK6-cycD3) enzyme assays were carried out as described below.
(iii) CDK4-cycD3 TR-FRET (LANCE®)
An Echo acoustic dispenser is used to create dose responses of compound dissolved in DMSO into a 384-well microplate. A 5 μL volume of enzyme mix is added to the well, and pre-incubated with compound for 30 minutes. […] Buffer conditions are 50 mM HEPES, pH 7.5, 10 mM MgCl2, 2 mM TCEP, 0.05% BGG and 0.01% Brij 35. The reaction is quenched with 5 μL of EDTA in detection buffer (15 mM [EDTA final]). Finally, a 5 μL TR-FRET detection mix is added to the quenched reaction, which includes Europium labeled anti-phospho-4E-BP1. […] Signal is a ratio of the Acceptor and Donor fluorescence. Inhibition constants are calculated via the Morrison equation.

Amino acid sequences for entries named in this document (tags omitted). A change or cut given only in a name is not applied to a line headed by its entry.
UniProt P11802: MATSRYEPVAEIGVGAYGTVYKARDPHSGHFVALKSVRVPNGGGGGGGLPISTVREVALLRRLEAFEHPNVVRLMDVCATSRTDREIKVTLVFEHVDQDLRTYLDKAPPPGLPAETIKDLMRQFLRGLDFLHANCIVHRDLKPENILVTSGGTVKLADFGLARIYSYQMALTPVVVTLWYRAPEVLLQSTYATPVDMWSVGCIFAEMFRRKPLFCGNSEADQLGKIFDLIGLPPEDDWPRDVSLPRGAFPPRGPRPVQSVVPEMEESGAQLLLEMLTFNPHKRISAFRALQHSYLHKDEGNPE

Ki: 290 nM
Compound: CC(C)NC(=O)O[C@@H]1CC[C@H](c2cc(Nc3ccn(C)n3)n[nH]2)C1 [Comparator C, reference compound]

— patent publication US20240425478A1, “CYCLOPENTYLPYRAZOLE CDK2 INHIBITORS” (Genentech, Inc., priority 2021, published 2024)
